## Binding of CDR-mutated scFvs to a peptide of the spike HR2 region

All variants were tested on one target, the spike HR2 peptide PDVDLGDISGINAS (SARS-CoV-2).

Parent scFv Ab-14: VH joined to VL by a (GGGGS)3 linker. Changes lie in the heavy chain CDRs alone.
VH: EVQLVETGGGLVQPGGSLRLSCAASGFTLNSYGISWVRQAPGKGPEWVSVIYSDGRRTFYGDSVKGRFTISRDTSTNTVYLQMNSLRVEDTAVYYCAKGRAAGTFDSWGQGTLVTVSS
VL: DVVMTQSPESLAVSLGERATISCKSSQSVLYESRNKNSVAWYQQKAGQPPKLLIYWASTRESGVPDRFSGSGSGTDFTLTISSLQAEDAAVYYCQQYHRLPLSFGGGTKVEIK

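The starting antibody came from a phage panning campaign against this peptide. These sequences belong to a second round, designed from the earlier measurements on random variants of the parent. Several design methods are mixed in this list. The scFvs were displayed on barcoded MATa yeast, the peptide on MATalpha yeast. The frequency of each diploid, read from paired DNA barcodes, reflects how well the two displayed proteins bind. Each replicate has its own calibration line, from reference interactions of the BCL2 family. The assay was run in six technical replicates.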

Substitutions are numbered in sequence along the VH above, starting at 1 (not Kabat).
Variants here have at most six changes.
Each Kd is an estimate from the mating assay, the geometric mean of the replicates in which the pair was seen; lower is stronger.
Where no diploid with the target was found in any replicate, the entry reads "nd": below detection, most likely a poor binder, though not proof of it.
The authors' rule: three or more of the six replicates give a measured affinity, fewer mean a poor binder.
Values of this round are not directly comparable with the first-round values of the same sequences.
Some sequences occur more than once in the pool; their replicates are pooled.
The parent sequence was in this pool as ten entries: three were never detected, three once, and four in most replicates, with averages from 2.2 nM to 240 nM.
Nonspecific signal, from three strains lacking the peptide, appeared in 1% of pairings of all heavy chain designs, centred on 120 nM (5% of these signals below 7.0 nM); values are not corrected for it. Also given: how often the same scFv was detected with the empty control strains.

* T28S+G61S+S63N+D106M -> nd (0 of 6 replicates; controls 0 of 18)
* T28Q+S31D -> 4.3 nM (12 of 12 replicates; controls 0 of 36)
* T28E+S31M+G61I+A101T -> 9.6 nM (6 of 6 replicates; controls 1 of 18)
* S53A+R56Q -> 1.2 nM (6 of 6 replicates; controls 0 of 18)
* S53A+A101V+S107T -> 1.7 nM (6 of 6 replicates; controls 0 of 18)
* T28E+G61D+R100Q+A101T -> 2.9 nM (6 of 6 replicates; controls 0 of 18)
* T28N+G61A+R100H+S107T -> 16 nM (6 of 6 replicates; controls 0 of 18)
* T28S+G61A+A101E+S107K -> 550 pM (6 of 6 replicates; controls 0 of 18)
* S31E+A101M+S107K -> 12 nM (6 of 6 replicates; controls 0 of 18)
* T28D+T104N+D106I+S107Q -> nd (0 of 6 replicates; controls 0 of 18)
* N30D+S53A+D106S -> 230 pM (6 of 6 replicates; controls 0 of 18)
* S35T+F59S+S63E -> nd (0 of 6 replicates; controls 1 of 18)
* T28E+S63N+R100K+A101T+S107T -> 2.0 nM (6 of 6 replicates; controls 1 of 18)
* G61E+D106P -> 20 nM (1 of 6 replicates; controls 0 of 18)
* A101I+S107T -> 21 nM (6 of 6 replicates; controls 0 of 18)
* F27E+R100H+A101F+F105K -> nd (0 of 6 replicates; controls 0 of 18)
* R56K+G61S+R100K+S107V -> 6.2 nM (6 of 6 replicates; controls 0 of 18)
* S31E+A101M+D106F -> nd (0 of 6 replicates; controls 0 of 18)
* T28E+G61S+A101Q -> 1.4 nM (6 of 6 replicates; controls 0 of 18)
* F59S+G61S+S63K+K65R -> 12 nM (2 of 6 replicates; controls 0 of 18)
* T28S+S31M+G61I+A101E -> 7.9 nM (6 of 6 replicates; controls 0 of 18)
* S31D+A101Q+D106I+S107I -> nd (0 of 6 replicates; controls 0 of 18)
* T28D+S63N+A101Q -> 940 pM (6 of 6 replicates; controls 1 of 18)
* G26S+T28D+A101E -> 1.2 nM (4 of 6 replicates; controls 0 of 18)
* T28D+T104W+D106N+S107K -> nd (0 of 6 replicates; controls 0 of 18)
* T28D+S53A+R100Q -> 14 nM (6 of 6 replicates; controls 0 of 18)
* T58A+G61S -> 25 nM (6 of 6 replicates; controls 1 of 18)
* T28D+G99R -> nd (0 of 6 replicates; controls 0 of 18)
* G26N+T28D+G55T+A101W+T104W+D106N -> nd (0 of 6 replicates; controls 0 of 18)
* N30D+T58C+F105A+D106L -> nd (0 of 6 replicates; controls 1 of 18)
* T28Q+S31D+F59W -> 19 nM (6 of 6 replicates; controls 1 of 18)

Values reported by Li et al. 2023, doi:10.1038/s41467-023-39022-2 (FLAb copy).